# Source: PubChem
# MC4R barr agon – human MC4R agonism via beta-arrestin; hit rate 0.98% among 360,000; AID 540308; U2OS MC4R beta-arrestin complementation, luminescence; percent of melanotan II response, DMSO zero; P32245; activation, % at 8.9 µM;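 active = activation above a per-plate cutoff, the mean activation of sample wells on that plate plus 3 SD, cut at about 8% in these data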
# HDAC3 inhib – human HDAC3 inhibition; inhibition, % at 8.3 µM; O15379; recombinant HDAC3, fluorogenic peptide/trypsin coupled, fluorescence; hit rate 0.15% among 320,000; in the data active = inhibition above about 26%, passing the limit was not always enough
# MC4R antag cAMP – blocks human MC4R cAMP signaling. P32245. MC4R-expressing cells, MTII-stimulated cAMP, LANCE TR-FRET. inhibition, % at 6.5 µM. hit rate 0.48% among 360,000;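 active = inhibition above its plate's cutoff, the mean of tested wells on that plate plus 3 SD, cut at about 29% in these data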;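 also: 0% = Melanotan II alone and 100% = Melanotan II plus saturating MCL0020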
#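 Assay system: human MC4R-expressing U2OS cells; reagent: Melanotan II stimulation of cells; dosing: 6.5 µM single dose; timing: compound 30 min, challenge 1 h, detection 1 h; signal: TR-FRET cAMP assay; replicates: one well per compound, no replicates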
# NALP1 inh – inhibitors of NALP1 inflammasome in yeast | S. cerevisiae NALP1/ASC/caspase-1 growth, X-gal OD620, 72 h | inhibition, % at 10 µM | hit rate 0.61% among 280,000; in the data active = inhibition mostly above about 24%, no sharp cut-off; inactive = mostly below about 32%
# Yeast UUG start – modulators of yeast start codon fidelity, primary screen, whole organism, S. cerevisiae, single point, plate reader. S. cerevisiae UUG-firefly luciferase reporter, luminescence/redox ratio. activity score, % at 18.7 µM. 350,000 tested, 0.13% active;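 active = replicate mean at a twofold rise or more, about +100% in these data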;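 also: firefly luciferase made from a UUG start codon reports start codon fidelity; reporter light over untreated wells divided by growth signal over untreated wells; some hits fall short of that in this replicate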
# ALR H2O2 inh – human ALR oxidase inhibition via reduced H2O2; purified ALR, DTT oxidation, H2O2 HRP-luminol luminescence; P55789; 290,000 tested, 3.8% active; AID 485317; inhibition, % (no concentration beside the values);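 active means mean and each replicate at 75% or more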;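 further: stock transfer was 7.5 nL into about 7.5 µL; 0% = neutral wells and 100% = wells with inactivated enzyme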
# U2OS cAMP counter – counter-screen for MC4R antagonists: nonselective cAMP signaling inhibitors; shares compounds with MC4R antag cAMP; parental U2OS, forskolin cAMP, LANCE TR-FRET; inhibition, % at 6.5 µM; hit rate 26% among 1,600;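 active = mean inhibition over triplicates above the low-control well mean plus 3 SD, set per campaign, cut at about 13% in these data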;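 also: signal is single emission at 671 nm which falls as cellular cAMP rises; 0% = forskolin-stimulated wells and 100% = buffer without forskolin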
# MC4R antag conf – human MC4R cAMP antagonism confirmation; inhibition, % at 6.5 µM; MC4R-expressing cells, MTII-stimulated cAMP, TR-FRET; shares compounds with MC4R antag cAMP; hit rate 27% among 1,600; in the data active = inhibition above about 29%;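 also: 0% = agonist stimulated wells alone and 100% = agonist stimulated wells plus saturating reference antagonist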
# An asterisk follows results filed as active; . = no result given. Sampled rows, rich in hits. Any-hit rate of the full collection: about 4.2%.
# Letter code: A = MC4R barr agon; B = HDAC3 inhib; C = MC4R antag cAMP; D = NALP1 inh; E = Yeast UUG start; F = ALR H2O2 inh; G = U2OS cAMP counter; H = MC4R antag conf
1: CCOC(=O)CC(NC(=O)Cn1nnc(-c2ccccc2F)n1)c1ccc(OC)cc1 (stereo not drawn)
  A: 1 | B: -1 | C: 30* | D: 35 | E: . | F: -4 | G: 3 | H: 1

2: Cc1cc(C#N)c(C)c(SCc2[nH]nc3c2C(c2ccccc2)C(C#N)=C(N)O3)n1 (stereo not drawn)
  A: 1 | B: 3 | C: 31* | D: 4 | E: -16 | F: 26 | G: 4 | H: -6

3: Cc1ccc(NC(=O)c2ccccc2[N+](=O)[O-])nc1
  A: 1 | B: -4 | C: 38* | D: 23 | E: -27 | F: -9 | G: 0 | H: -8

4: C[C@@H]1CN([C@H](C)CO)C(=O)c2cc(NS(=O)(=O)c3ccc(Cl)cc3)ccc2O[C@@H](C)CCCCO[C@@H]1CN(C)CC1CCCCC1
  A: . | B: . | C: . | D: . | E: 22 | F: . | G: . | H: .

5: COc1ccc(CNC(=O)c2ccc(-c3ccc(F)c(F)c3)c3ccoc23)cc1OC
  A: 1 | B: . | C: 40* | D: . | E: 12 | F: . | G: -5 | H: 4

6: O=C(NCc1ccccc1)c1ccc(-c2ccc(F)c(F)c2)c2ccoc12
  A: 2 | B: . | C: 13 | D: . | E: -8 | F: . | G: . | H: .

7: COc1ccc(-c2noc(CCC(=O)NCCc3cccc(C)c3)n2)cc1
  A: 0 | B: -6 | C: 29* | D: 29 | E: . | F: -1 | G: 4 | H: -7

8: C/C=C/c1ccc([C@@H]2[C@@H](CO)N(C(C)=O)[C@@H]2CN(C)C(=O)CN(C)C)cc1
  A: . | B: . | C: . | D: . | E: 1 | F: . | G: . | H: .

9: Clc1ncnc2c1oc1ccccc12
  A: -2 | B: -2 | C: 39* | D: 25 | E: -25 | F: 3 | G: -1 | H: 6

10: CCSc1ncnc2c1oc1ccccc12
  A: 0 | B: -6 | C: -2 | D: 3 | E: -12 | F: 0 | G: . | H: .

# The final three records of the section above are carried over, then new ones follow.
# Letter code: A = MC4R barr agon; B = HDAC3 inhib; C = MC4R antag cAMP; D = NALP1 inh; E = Yeast UUG start; F = ALR H2O2 inh; G = U2OS cAMP counter; H = MC4R antag conf
8: C/C=C/c1ccc([C@@H]2[C@@H](CO)N(C(C)=O)[C@@H]2CN(C)C(=O)CN(C)C)cc1
  A: . | B: . | C: . | D: . | E: 1 | F: . | G: . | H: .

9: Clc1ncnc2c1oc1ccccc12
  A: -2 | B: -2 | C: 39* | D: 25 | E: -25 | F: 3 | G: -1 | H: 6

10: CCSc1ncnc2c1oc1ccccc12
  A: 0 | B: -6 | C: -2 | D: 3 | E: -12 | F: 0 | G: . | H: .

11: CCNC(=O)C[C@@H]1CC[C@H](NC(=O)C2CCC2)[C@H](CO)O1
  A: . | B: . | C: . | D: . | E: 19 | F: . | G: . | H: .

12: CSCc1ccc(C(=O)Nc2ccc(C(N)=O)cc2)cc1
  A: 0 | B: 0 | C: 31* | D: 0 | E: . | F: -6 | G: -4 | H: -12

13: CSCc1ccc(C(=O)NCc2ccc(C)cc2)cc1
  A: -1 | B: -3 | C: 11 | D: 22 | E: -10 | F: 8 | G: . | H: .

14: CCC(=O)Nc1ccc2c(c1)C(=O)N(C)C[C@H](OC)[C@H](C)CN(Cc1ccccc1)[C@@H](C)CO2
  A: . | B: . | C: . | D: . | E: -10 | F: . | G: . | H: .

15: C[C@@H]1CN([C@@H](C)CO)C(=O)Cc2cc(NC(=O)c3ccncc3)ccc2O[C@@H]1CN(C)C(=O)NC1CCCCC1
  A: . | B: . | C: . | D: . | E: -15 | F: . | G: . | H: .

16: NCC[C@@H]1CC[C@H](NC(=O)Nc2ccc(F)cc2)[C@H](CO)O1
  A: . | B: . | C: . | D: . | E: 2 | F: . | G: . | H: .

17: CS(=O)(=O)c1ccc(C(=O)NCCN2C(=O)S/C(=C\c3cccnc3)C2=O)cc1[N+](=O)[O-]
  A: -2 | B: 8 | C: 32* | D: 20 | E: . | F: 100* | G: 18* | H: 33*

18: CCCCn1c(=O)[nH]c(=O)c2c1nc(-c1ccc(C#N)cc1)n2C1CCCC1
  A: 0 | B: -14 | C: 29* | D: 0 | E: -12 | F: -4 | G: 3 | H: 8

19: CCCCn1c(=O)[nH]c(=O)c2c1nc(-c1ccc(OCC)cc1)n2CC
  A: 0 | B: -1 | C: 7 | D: 17 | E: -14 | F: -7 | G: . | H: .

20: CCOC(=O)CSc1nc2ccc(Nc3nc(N4CCOCC4)nc(N4CCOCC4)n3)cc2s1
  A: -1 | B: -9 | C: 30* | D: 19 | E: -26 | F: 99* | G: -16 | H: 27

21: O=C(CN1CCN(Cc2ccccc2F)C1=O)NC1CCCC1
  A: 0 | B: 0 | C: 29* | D: 2 | E: -21 | F: -5 | G: -1 | H: -5

22: C[C@H](CO)N1C[C@H](C)[C@H](CN(C)C(=O)CN(C)C)Oc2ncc(C#Cc3ccncc3)cc2C1=O
  A: . | B: . | C: . | D: . | E: -7 | F: . | G: . | H: .

23: CCOc1ccc(-c2nnc3ccc(SCC(=O)N4CCN(c5ccccc5)CC4)nn23)cc1
  A: 0 | B: . | C: 32* | D: . | E: . | F: . | G: 3 | H: 4

24: Cc1cc(C(=O)COc2cc(F)ccc2[N+](=O)[O-])c(C)n1C1CC1
  A: -1 | B: -1 | C: 29* | D: -1 | E: . | F: -2 | G: 19* | H: 48*

25: COC(=O)c1ccc(N2NC(=O)/C(=C/c3cc(OC)c(OC)c(OC)c3)C2=O)cc1
  A: -2 | B: 1 | C: 36* | D: 0 | E: 1 | F: . | G: 1 | H: -3

26: CC(=O)n1cc([C@@H]2C=C(C(=O)NCc3ccccc3)O[C@H](OCc3ccc(CO)cc3)C2)c2ccccc21
  A: -1 | B: -3 | C: 36* | D: 11 | E: -11 | F: . | G: -2 | H: 6

27: CC(=O)n1cc([C@H]2C=C(C(=O)Nc3ccccc3)O[C@@H](OCc3ccc(CO)cc3)C2)c2ccccc21
  A: -1 | B: 8 | C: 31* | D: 4 | E: -11 | F: -2 | G: 1 | H: 12

28: COc1ccc(Cl)cc1Nc1nc(-c2sc(NC(=O)c3ccco3)nc2C)cs1
  A: -1 | B: 1 | C: 10 | D: -4 | E: -12 | F: 2 | G: . | H: .

29: COc1cccc(Nc2nc(-c3sc(C)nc3C)cs2)c1
  A: 1 | B: 10 | C: 29* | D: 13 | E: 1 | F: 7 | G: 0 | H: 6

30: COc1cccc(Nc2nc(-c3sc(NC(=O)c4ccco4)nc3C)cs2)c1
  A: -1 | B: 4 | C: 35* | D: 2 | E: -23 | F: 22 | G: 10 | H: 20

31: Cc1noc(C)c1NC(=O)N(C)C[C@H]1Oc2ccc(NS(=O)(=O)c3ccc(Cl)cc3)cc2CC(=O)N([C@@H](C)CO)C[C@@H]1C
  A: . | B: . | C: . | D: . | E: 6 | F: . | G: . | H: .

32: Cc1cccc(OC(=O)c2sc(Cl)nc2C)c1
  A: -2 | B: 2 | C: 32* | D: 41 | E: -10 | F: 5 | G: 14* | H: 32*

33: O=C(O)C[C@H]1C[C@@H]2c3cc(NC(=O)NC4CCCC4)ccc3O[C@@H]2[C@H](CO)O1
  A: . | B: . | C: . | D: . | E: -7 | F: . | G: . | H: .

34: Fc1ccc(NC(=S)Nc2ccc3nccnc3c2)cc1
  A: 2 | B: 4 | C: 36* | D: -8 | E: . | F: 8 | G: -2 | H: -1

35: O=C(O)CCCCCN1C(=O)/C(=C/c2cn(-c3ccccc3)nc2-c2cccs2)SC1=S
  A: 5 | B: . | C: 18 | D: . | E: . | F: . | G: . | H: .

36: CC1=NNC(=O)/C1=C\c1cn(-c2ccccc2)nc1-c1cccs1
  A: -2 | B: -2 | C: 47* | D: 65* | E: . | F: -1 | G: 22* | H: 44*

37: COC(=O)CSc1nnc(-c2ccc(NS(=O)(=O)c3ccccc3)cc2)o1
  A: 0 | B: 13 | C: 68* | D: 3 | E: -3 | F: 1 | G: 12 | H: 37*

38: O=C(CSc1ccccn1)C12CC3CC(CC(C3)C1)C2
  A: 4 | B: 2 | C: 32* | D: 18 | E: . | F: 1 | G: 2 | H: -5

39: CCOC(=O)c1cc(-c2ccccc2)sc1NC(=O)COC(=O)c1ccc(Cl)c(S(N)(=O)=O)c1
  A: 2 | B: 4 | C: 29* | D: 16 | E: . | F: -1 | G: 3 | H: 7

40: CCCC1=NN2C(=N)/C(=C\c3cc(C)n(-c4cc(C)cc(C)c4)c3C)C(=O)N=C2S1
  A: 2 | B: -1 | C: 30* | D: 7 | E: 13 | F: 1 | G: -1 | H: -20

41: C[C@@H]1CN([C@H](C)CO)C(=O)c2cccc(NC(=O)c3ccc(-c4nccs4)cc3)c2O[C@@H]1CN(C)S(=O)(=O)c1cn(C)cn1
  A: . | B: . | C: . | D: . | E: 15 | F: . | G: . | H: .

42: Cc1ccc(Cn2ncc(Cl)c(Cl)c2=O)cc1
  A: -2 | B: -2 | C: 49* | D: 30 | E: 1 | F: 15 | G: 33* | H: 50*

43: O=C(Cn1ncc(Cl)c(Cl)c1=O)N1CCOCC1
  A: 5 | B: -1 | C: 2 | D: -5 | E: . | F: -16 | G: . | H: .
